ChEMBL document CHEMBL1154690, “Identification of novel, selective, and stable inhibitors of class II histone deacetylases. Validation studies of the inhibition of the enzymatic activity of HDAC4 by small molecules as a novel approach for cancer therapy” (J Med Chem, 2009)

Test: Selectivity ratio of IC50 for HDAC6 to IC50 for HDAC1

Compound: O=C(O)c1cccc(-c2ccc(C(=O)C(F)(F)F)s2)c1
- Ratio IC50: 180
